# Binding of CDR-mutated scFvs to a peptide of the spike HR2 region

From the AlphaSeq antibody data of Engelhart et al. 2022 (doi:10.1038/s41597-022-01779-4), copy in the FLAb collection.

Target peptide (SARS-CoV-2 spike, HR2 region): PDVDLGDISGINAS

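The starting antibody came from a phage panning campaign against this peptide. In library AAYL49, one, two or three CDR residues were substituted; doubles and triples were drawn at random. AlphaSeq pools MATa yeast showing the antibodies with MATalpha yeast showing the peptide. The frequency of each diploid, read from paired DNA barcodes, reflects how well the two displayed proteins bind. The ratio of observed to expected reads was calibrated, replicate by replicate, on BCL2-family standards whose Kd was known from biolayer interferometry. Mating was done three times.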

Each scFv is VH, a 15-residue (Gly4Ser)3 linker, VL, as in the parent Ab-14, and differs from it in the CDRs of the heavy chain only.
VH: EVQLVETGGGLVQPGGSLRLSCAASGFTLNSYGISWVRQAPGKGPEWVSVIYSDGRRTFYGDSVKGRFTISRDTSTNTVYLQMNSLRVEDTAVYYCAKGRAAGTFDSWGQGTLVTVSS
VL: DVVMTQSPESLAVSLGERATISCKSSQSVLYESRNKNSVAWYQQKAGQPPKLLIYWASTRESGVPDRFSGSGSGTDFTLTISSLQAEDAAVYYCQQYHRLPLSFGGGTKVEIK

The parent's heavy chain CDRs are GFTLNSYGIS, VIYSDGRRTFYGDSVK, GRAAGTFDS; each variant's own CDRs replace them letter for letter. The Kd shown is the geometric mean over detected replicates; a lower Kd is a better binder. Where no diploid with the target was found in any replicate, the entry reads "nd": below detection, most likely a poor binder, though not proof of it. For reference, the parent read 4.4 nM as the reference entry and 13 µM (one replicate of three) as a member of this library. Three control strains display no target. For library AAYL49, 15% of the pairings with them gave a signal, with a median of 11 µM and one signal in twenty below 680 nM, so weak values seen in few replicates may be background.

| CDR-H1 | CDR-H2 | CDR-H3 | apparent Kd | detected |
|---|---|---|---|---|
| GFTLNSYGIS | VIYSMGRRTFYLDSVK | GRAAGTFAS | nd | 0 of 3 |
| SFTLNDYGIS | VIYSDGRRTFYGDSVK | GCAAGTFDS | 13 µM | 1 of 3 |
| GATLFSYGIS | VIYSDGRRTFYGDSVK | GRAEGTFDS | 850 nM | 1 of 3 |
| GFTLNSYGIS | VVYIDGVRTFYGDSVK | GRAAGTFDS | 62 µM | 2 of 3 |
| GFTLNSYGIN | VIYSDGRRTRYGDSTK | GRAAGTFDS | nd | 0 of 3 |
| GFTLNHYGIS | VIYSDGRRTFYRDSVC | GRAAGTFDS | 3.6 µM | 3 of 3 |
| GFTLNSYGIS | VIYGDGRRTFYGDSHN | GRAAGTFDS | 950 µM | 1 of 3 |
| GFTLDSYGTS | VIYSDGRRSFYGDSVK | GRAAGTFDS | 9.7 µM | 2 of 3 |
| GFTLNSYGIS | VIYTKGRDTFYGDSVK | GRAAGTFDS | 2.6 µM | 1 of 3 |
| GLTLNSYGIS | VIRSDGRRTIYGDSVK | GRAAGTFDS | nd | 0 of 3 |
| GFTIYSYGIS | VIYSDGRRTFYGDSVK | GRAAGTFNS | nd | 0 of 3 |
| GFTVNSYGIS | VIYIDGRRTFYGDSVK | GRAATTFDS | nd | 0 of 3 |
| GFTLNSYGIS | VIYSDIRRTFYSDSEK | GRAAGTFDS | 25 µM | 2 of 3 |
| GFTLNSYGIL | VIYSDGRRTFYGDSVK | GGAAGTFDN | 4.2 µM | 2 of 3 |
| GFTLNSYGIS | AIRSDGRRTFYGDSVL | GRAAGTFDS | 4.8 µM | 1 of 3 |
| GFTLNSYGIS | VKYSDGRRTFWGDSVK | GRAAGTFDS | 11 µM | 1 of 3 |
| GQTLNSYGYS | VIYSDGRRTFYGDSVK | GRAAHTFDS | 19 µM | 3 of 3 |
| FFTLNSYGIS | VIYSNGRCTFYGDSVK | GRAAGTFDS | 53 µM | 1 of 3 |
| GFTLNSYGIS | VIYWDGRRTFVGDSNK | GRAAGTFDS | 530 nM | 1 of 3 |
| GFTLNSYGIS | VHYSDGRRTFYGDSVK | GRPAGQFDS | nd | 0 of 3 |
| GFTLNSYNIS | VIYSDGCRTFYGDSVK | GRAAGTFDS | 8.4 µM | 1 of 3 |
| GFTLNSYSIS | VIYSDCRRTFYGDSVK | GRAAGTFDS | nd | 0 of 3 |
| GFTLNSQGIS | VIYSDGRRTFYLDSVK | GRSAGTFDS | 3.1 nM | 3 of 3 |
| GFTLNSYGAS | VIYSDGRRTFYGDVVK | GRKAGTFDS | nd | 0 of 3 |
| GFTLNDYGIS | VIYSDGRRTFYGDSVK | GRAGGPFDS | nd | 0 of 3 |
| GFTLNSYGIS | CIYSDGRRRFYGDSVK | GRAAGTFDS | 540 nM | 1 of 3 |
| GFTLNSYGIS | VIYSDGRFTFYGDAVK | GRAAGTFDS | 190 nM | 1 of 3 |
| GFHLNSYGIS | YIYSDGRRTFYGDSGK | GRAAGTFDS | 260 µM | 1 of 3 |
| GFTINSYGIS | VIYSDGRRTFYGHSVK | GRALGTFDS | 9.4 µM | 3 of 3 |
| GFTINSYGIS | VIVSDGRRTFYGASVK | GRAAGTFDS | 4.3 µM | 1 of 3 |
| GFELNSYGIS | VIYSDGRRTFYGDRCK | GRAAGTFDS | nd | 0 of 3 |
| GFTLNSYGIS | VIYSDGRRTFKGDSVK | GRAALTFDS | nd | 0 of 3 |
| GFTLNANGIS | VIYSDGRRFFYGDSVK | GRAAGTFDS | nd | 0 of 3 |
| GPTLNSYGIS | VIYSDGRRTFYEDVVK | GRAAGTFDS | nd | 0 of 3 |
| GFFLNSYGDS | VIYSDGRRRFYGDSVK | GRAAGTFDS | 1.8 mM | 1 of 3 |
| GFTLNSYVIS | VIMSDWRRTFYGDSVK | GRAAGTFDS | nd | 0 of 3 |

Continued, with the values leading:

| apparent Kd | detected | CDR-H1 | CDR-H2 | CDR-H3 |
|---|---|---|---|---|
| nd | 0 of 3 | GFTLNSYGIS | VRYSDARRTFYTDSVK | GRAAGTFDS |
| 450 nM | 3 of 3 | GFTLNSYGIS | VIYTDGRRTFYGDSVK | HRAAGTFDS |
| 19 µM | 1 of 3 | GFTLNSYGIS | VIYYDGRSTFYGDEVK | GRAAGTFDS |
| 260 µM | 1 of 3 | GFTLNYYGIS | VIYSDGPRTFYGDSVK | GLAAGTFDS |
| 10 µM | 2 of 3 | GFTLNSYGIS | VIQSDGRRTFYGDSVK | YRAAGTLDS |
| nd | 0 of 3 | GFTLNSYGIS | VIYSDGRRTQPGDSEK | GRAAGTFDS |
| 230 nM | 3 of 3 | GFTLNTYGIS | VIYSDGCHTFYGDSVK | GRAAGTFDS |
| 1.9 µM | 1 of 3 | GDTLNSYGIS | VIYSFGRRTFYGKSVK | GRAAGTFDS |
| 3.5 nM | 3 of 3 | GFTLNSYGIS | VIYSDGLRTFYDDSVA | GRAAGTFDS |
| nd | 0 of 3 | FFTLNSYGIS | VIYSDGRRTFYGDSVK | PRAAGTFCS |
| 250 nM | 2 of 3 | GFTLNSYGIS | VIYSDGRRTFIGDSVK | TRAIGTFDS |
| 2.4 µM | 1 of 3 | GFTLNSRGIS | VIDSDGRTTFYGDSVK | GRAAGTFDS |
| nd | 0 of 3 | GFLMNSYGIS | VIYSGGRRTFYGDSVK | GRAAGTFDS |
| 11 nM | 3 of 3 | GFMLNSYGIS | VIYSDGRRTFYTDSVK | GRAAGTFES |
| 180 µM | 1 of 3 | GFTLNSYGIS | VIYSYGRRGFYGDSVK | GRAAGTFDQ |
| 16 nM | 3 of 3 | GFTLCSYGIS | VIYSDGRRTFYGDDVK | GRTAGTFDS |
| 68 µM | 2 of 3 | GFTANSYGIS | VIYSDQRRTFYGDSVK | GMAAGTFDS |
| 1.1 µM | 1 of 3 | GFTLNSYGIS | VIYSDGRLTFYGDSVK | GRAGGTFSS |
| 94 µM | 1 of 3 | GFTLNSYGIS | VIYSDGRSEFYGDSCK | GRAAGTFDS |
| nd | 0 of 3 | GFTLNSYGIS | VIYSDGERTFYVDSVK | GRAYGTFDS |
| 2.3 µM | 3 of 3 | GFTLNSCGIS | VIYSDGRRTFYGDSVK | GTAAGDFDS |
| nd | 0 of 3 | GFTLNSYWIS | VIYSDGRRTFYGDSVK | KRAAGMFDS |
| nd | 0 of 3 | GFTLNSYGIS | VIYSDGRMTPYGDSHK | GRAAGTFDS |
| 69 nM | 3 of 3 | GFTLNCYGIS | VIYSDGRRTFYHDSVK | GRAAGTFDS |
| 110 nM | 3 of 3 | GFTLNSYGIS | VIYSDGTRTFYGRSVR | GRAAGTFDS |
| nd | 0 of 3 | IFTLNSYGIS | VIYSDIRRTLYGDSVK | GRAAGTFDS |
| 6.4 µM | 2 of 3 | GFTLNSYGIS | VIHSFGRRTFGGDSVK | GRAAGTFDS |
| nd | 0 of 3 | GFTLNSYGIS | VIYSDGRRTFQGDWVK | GRAAGTCDS |
| nd | 0 of 3 | GSTLNSPGIS | VIYSDGRRTFYGDSVK | GMAAGTFDS |
| 320 nM | 3 of 3 | GFTLNSYGIS | VIYSDGRRTYYGDMVK | GRAAGTFDS |
| nd | 0 of 3 | GYTLNSYGIS | VIYSDGRPTFYGDSEK | GRAAGTFDS |
| nd | 0 of 3 | GFTLNSYGIS | VIYSDGRMTFYGDSVK | GRAAGLFDS |
| 2.6 µM | 2 of 3 | GFTLNSYGIS | VIYSDGRRLFYGDSVK | GRKAGYFDS |
| nd | 0 of 3 | LMTLNSYGIS | VIYSDGRRTFYGDSVK | GRAATTFDS |
| nd | 0 of 3 | GFTLNSYGIS | VIFSDGRETFYGDSVK | GRAASTFDS |
| 19 µM | 3 of 3 | GCTLNSYGIS | VIYSDGRRTFYGDSVF | GRAAGSFDS |

Again, the first 4 entries without any signal:

| CDR-H1 | CDR-H2 | CDR-H3 | apparent Kd | detected |
|---|---|---|---|---|
| GFTLNSYGIS | VIYSMGRRTFYLDSVK | GRAAGTFAS | nd | 0 of 3 |
| GFTLNSYGIN | VIYSDGRRTRYGDSTK | GRAAGTFDS | nd | 0 of 3 |
| GLTLNSYGIS | VIRSDGRRTIYGDSVK | GRAAGTFDS | nd | 0 of 3 |
| GFTIYSYGIS | VIYSDGRRTFYGDSVK | GRAAGTFNS | nd | 0 of 3 |